Key:
FXR = molecular target: T1, FXR (Homo sapiens, UniProt Q96RI1); assay: Subcellular localization of FXR by immunocytochemistry and confocal microscopy; assay type: cell-based; conditions: 5 μM, 24 hr
T1 construct: endogenous in cells; host or cells: T84 cells
T1 sequence (Q96RI1 1-486): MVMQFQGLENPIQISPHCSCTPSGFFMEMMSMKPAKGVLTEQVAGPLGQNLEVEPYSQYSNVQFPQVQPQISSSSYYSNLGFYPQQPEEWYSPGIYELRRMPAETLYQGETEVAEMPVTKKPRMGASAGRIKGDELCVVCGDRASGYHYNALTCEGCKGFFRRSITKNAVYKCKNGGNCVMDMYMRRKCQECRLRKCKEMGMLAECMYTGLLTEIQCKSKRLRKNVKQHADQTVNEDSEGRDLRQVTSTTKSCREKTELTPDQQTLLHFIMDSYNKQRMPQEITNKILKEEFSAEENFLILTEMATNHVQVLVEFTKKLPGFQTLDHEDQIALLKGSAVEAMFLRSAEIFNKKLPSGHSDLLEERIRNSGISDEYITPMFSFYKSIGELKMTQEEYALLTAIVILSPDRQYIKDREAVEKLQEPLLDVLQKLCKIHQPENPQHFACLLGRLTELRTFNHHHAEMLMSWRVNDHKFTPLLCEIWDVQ
Method: Confocal Microscopy: T84 cells, plated onto Cell-Tack coated chamber slides were fixed in paraformaldehyde and permeabilised in Triton X-100. Samples were incubated with antibodies against FXR, washed and then incubated with fluorescence-conjugated secondary antibodies. Cells were visualised using an LSM 510 META laser scanning confocal microscope.
GW4064 stimulates FXR translocation to the nucleus. Subcellular localization of FXR (green) following treatment with the FXR agonist, GW4064 was investigated by immunocytochemistry and confocal microscopy. […] FIG. 3

Na^+/K^+ ATPase = assay: Na^+/K^+-ATPase activity in permeabilized T84 monolayers (Ussing chambers); assay type: cell-based; conditions: GW4064 5 μM, 24 hrs
Description: To measure Na^+/K^+-ATPase activity T84 cell monolayers were mounted in Ussing chambers and bathed bilaterally in low-sodium (25 mmol/L) Ringers' solution, where NaCl was substituted with equimolar N-methyl-D-glucamine (NMDG)-Cl^−. Apical membranes were permeabilized with amphotericin (50 μmol/L). Under these conditions (ie: in the absence of ionic gradients across the permeabilized monolayer) changes in Isc are wholly reflective of electrogenic transport through the Na^+/K^+-ATPase.

For GW4064, the “FXR translocation from the cytoplasm to the nucleus” value (FXR) was “promoted the translocation of FXR from the cytoplasm to the nucleus” and the “Na^+/K^+ ATPase activity” value (Na^+/K^+ ATPase) was “inhibited”.

Source: US20110257139A1, “TREATMENT OF DIARRHOEA” (ROYAL COLLEGE OF SURGEONS IN IRELAND, priority 2008, published 2011)
